Literature values in PMC8745263 (International Journal of Molecular Sciences, 2021).

Tested on: APEH
Conditions: cited from earlier work

For “DAEFRHDSGYEVH(ox)H(ox)QKLVF(ox)F(ox)AEDVGSNK”, the cleaved bond is given as “H(ox)-Q; also recorded: F(ox)-F(ox)”.

Entries after “also recorded” stand apart in the source; their conditions may differ.
